Molecular target: FKBP12 (Homo sapiens, UniProt P62942)
Assay: Binding constants (Kd) for FKBP12, isothermal titration calorimetry
Conditions: read-out: Binding constant (Kd) for FKBP12; ITC, 25° C., pH 7.2, 150 mM NaCl, 20 mM Tris
Source text: SLF was synthesized according to the procedures of Holt et al. [J. Am. Chem. Soc. 1993, 115, 9925]. SLF was coupled to the N-terminus of the resin-bound protected pYEEI peptide using PyBOP. The heterodimeric SLFpYEEI was deprotected and cleaved from the Novasyn TGT resin (Calbiochem-Novabiochem, San Diego, Ca.) using 25% trifluoroacetic acid and 2.5% triisopropyl silane in methylene chloride and the desired product was isolated using reverse phase HPLC. C. […] Recombinant FKBP12 or FKBP52 bind to the FK506 moiety of FKpYEEI, thus creating an enlarged binding surface. Recombinant FKBP12 was expressed as a GST fusion protein and bound to glutathione beads (Pharmacia). Using thrombin (Sigma) to cleave the GST-FKBP12 fusion protein at a thrombin cleavage site in the linker between GST and FKBP12, recombinant FKBP12 could be released from the glutathione beads where GST remained bound. FKBP52 was expressed with a tag of six histidine residues at its N-terminus (pET28c expression vector, Novagen). […]
SLFpYEEI and FKpYEEI are bifunctional molecules that can bind FKBP12 and FKBP52 as well as the Fyn SH2 domain (FIG. 2). The binding constants (Kd values) of the bifunctional molecules for the three proteins were measured using isothermal titration calorimetry (ITC) (Table 1).

The chains behind the UniProt entries cited, without tags or fusion partners.
UniProt P62942, whole entry: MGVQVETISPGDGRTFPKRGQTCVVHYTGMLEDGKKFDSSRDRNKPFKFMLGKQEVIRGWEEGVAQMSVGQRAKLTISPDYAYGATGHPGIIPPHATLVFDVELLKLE

## CCC(C)(C)C(=O)C(=O)N1CCCC[C@H]1C(=O)O[C@H](CCc1ccc(OC)c(OC)c1)c1cccc(OCC(=O)O)c1
  Kd: 20 nM

Reference: US6921531B2, “Administering bifunctional molecules containing a drug moiety and presenter protein ligand for therapy” (The Board of Trustees of the Leland Stanford Junior …, priority 1998, dated 2005)
